Earlier results as cited in paper PMC8302504, “Efficacy of Fenfluramine and Norfenfluramine Enantiomers and Various Antiepileptic Drugs in a Zebrafish Model of Dravet Syndrome” (Neurochemical Research, 2021).

Columns and labels:
serotonin uptake = target: serotonin uptake; design: method as in earlier work; details: 34 (Rothman et al.); read-out: Ki values for uptake inhibition, 5-HT; cited from earlier work
[1] = tested on: 5-HT transporter proteins; design: method as in earlier work; details: 34 (Rothman et al.); read-out: EC50 values for release, 5-HT; cited from earlier work

SMILES	Ki (serotonin uptake) [nM]	EC50 [1] [nM]
CCN[C@@H](C)Cc1cccc(C(F)(F)F)c1 [(+)-FFA]	150 ± 5	51.7 ± 6.1
CCN[C@H](C)Cc1cccc(C(F)(F)F)c1 [(−)-FFA]	714 ± 31	147 ± 19
